{
  "source": "patent EP2623495B1",
  "about": "“Positively charged water-soluble prodrugs of n-arylanthranilic acids with very fast skin penetration rate” (Techfields Biochem Co. Ltd, priority 2006, dated 2008)",
  "experiment": "Solubility in water",
  "data": [
    {"substance": "S-dimethylaminoethyl 2-[[(3-trifluoromethyl)phenyl]amino] benzoate.AcOH", "values": [
      {"measurement": "solubility in water", "value": 400, "unit": "mg/mL"}
    ]}
  ]
}
